Assay results reported in PubChem BioAssay AID588674 (Broad Institute, 2011).
Only a part is listed here, and it is no random draw. Active and inactive are the calls of the source.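 Rule for the calls: active = mean inhibition of at least 75% with every replicate also reaching 75%; inconclusive = mean inhibition at least 75% but some replicate below; inactive = mean inhibition below 75%.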

Experiment: reduction of Shn3 3'UTR firefly luciferase signal, primary screen, Schnurri-3 inhibitor project, cell-based, Clone20 osteoblasts, set 2 (AID 588674);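 note: 0% = median of neutral control wells and 100% = pilot-screen positive control compound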
Conditions: Clone20 osteoblast Shn3 3'UTR firefly luciferase, 24 h; at 12.5 µM; hits give high values
For Cc1cc(-c2cccc3ccccc23)c(C)cn1.O=[N+]([O-])c1cc([N+](=O)[O-])c(O)c([N+](=O)[O-])c1, the inhibition was inactive: 5.36%. With CCOP(C)(=S)SCC(=O)NC(C)(CC)C(=O)O (stereo unspecified) the inhibition was inactive: -4.38%. In the case of CP(=O)(Nc1ccc(SC(F)(F)F)cc1)Oc1ccc(F)cc1 (stereo unspecified), the inhibition is reported as inactive: 6.23%. For Cc1ccccc1NP(C)(=O)Nc1ccccc1C, the inhibition was inactive: 2.08%. In the case of CN(Cc1cccnc1)C(=O)COc1ccc(Cl)c(Cl)c1.O=[N+]([O-])c1cc([N+](=O)[O-])c(O)c([N+](=O)[O-])c1, the inhibition is reported as inactive: 0.443%. With O=[N+]([O-])c1cc([N+](=O)[O-])c(-n2nnc3ccccc32)c([N+](=O)[O-])c1 the inhibition was inactive: -10.7%. In the case of Cc1nc2ccc3ccccc3c2s1.O=[N+]([O-])c1cc([N+](=O)[O-])c(O)c([N+](=O)[O-])c1, the inhibition is reported as inactive: 1.99%. With O=[N+]([O-])c1cc([N+](=O)[O-])c(-c2cnn(-c3ccccc3)c2)c([N+](=O)[O-])c1 the inhibition was inactive: 9.31%. In the case of CCOC(=O)C(CC)C1=NC(C)(C)Cc2ccccc21.O=[N+]([O-])c1cc([N+](=O)[O-])c(O)c([N+](=O)[O-])c1 (stereo unspecified), the inhibition is reported as inactive: 11.1%. With CC1=C2N=C(C=C3N=C(C(C)=C4[N-][C@@](C)([C@@H]5N=C1[C@](C)(CCC(=O)NC[C@@H](C)OP(=O)([O-])O[C@H]1[C@@H](O)[C@@H](n6cnc7cc(C)c(C)cc76)O[C@@H]1CO)[C@H]5CC(N)=O)[C@@](C)(CC(N)=O)[C@@H]4CCC(N)=O)[C@@](C)(CC(N)=O)[C@@H]3CCC(N)=O)C(C)(C)[C@@H]2CCC(N)=O.[C-]#N.[Co+3] the inhibition was inactive: 0.0035%. With O=[N+]([O-])c1cc([N+](=O)[O-])c(Nc2nnnn2CCO)c([N+](=O)[O-])c1 the inhibition was inactive: -0.474%. For CCCOc1ccc(NP(C)(=O)Oc2ccc(Cl)cc2)cc1 (stereo unspecified), the inhibition was inactive: -6.75%. In the case of CP(=O)(Nc1ccc(SC(F)(F)F)cc1)Oc1ccccc1 (stereo unspecified), the inhibition is reported as inactive: 30.6%. In the case of CN1CCCCC1COC(=O)C1(O)c2ccccc2CCc2ccccc21 (stereo unspecified), the inhibition is reported as inactive: 1.22%. In the case of COc1ccccc1OP(C)(=O)Nc1c(C)cccc1C (stereo unspecified), the inhibition is reported as inactive: -8.03%. With CC1=NCCc2c1[nH]c1ccccc21.O=[N+]([O-])c1cc([N+](=O)[O-])c(O)c([N+](=O)[O-])c1 the inhibition was inactive: 0.188%. With CCOC(=O)c1ccc(NP(C)(=O)Oc2cc(C)cc(C)c2)cc1 (stereo unspecified) the inhibition was inactive: -8.62%. In the case of Cc1cc(C)cc(OP(C)(=O)Nc2ccc(C)cc2C)c1 (stereo unspecified), the inhibition is reported as inactive: -21%. For COc1ccccc1OP(C)(=O)Nc1cccc(Br)c1 (stereo unspecified), the inhibition was inactive: -1.95%. For Cc1ccc(C)c(NP(C)(=O)Oc2ccccc2)c1 (stereo unspecified), the inhibition was inactive: 13.7%. With Cc1cc(C)cc(OP(C)(=O)Nc2ccccn2)c1 (stereo unspecified) the inhibition was inactive: 13.1%. With CP(=O)(Nc1cccc(Br)c1)Oc1ccccc1 (stereo unspecified) the inhibition was inactive: 1.26%. With CCN(CC)CCCOC(=O)C(O)(c1ccccc1)c1ccccc1 the inhibition was inactive: -8.23%. With O=[N+]([O-])c1ccc2c(c1)C=Nc1ccccc1O2 the inhibition was inactive: -9.16%. For Cc1cccc(C)c1OP(C)(N)=O (stereo unspecified), the inhibition was inactive: -9.47%. With CC(C)(C)c1ccc(OP(C)(=O)Nc2ccc(SC(F)(F)F)cc2)cc1 (stereo unspecified) the inhibition was inactive: -5.33%. In the case of O=[N+]([O-])c1cc([N+](=O)[O-])c(Nc2cccnc2)c([N+](=O)[O-])c1, the inhibition is reported as inactive: -2.04%. For Cc1cc(C)cc(OP(C)(N)=O)c1 (stereo unspecified), the inhibition was inactive: -12%. In the case of COc1ccc(OP(C)(=O)Nc2cccc(F)c2)cc1 (stereo unspecified), the inhibition is reported as inactive: 10.9%. In the case of COc1ccccc1OP(C)(=O)Nc1cc(Cl)ccc1C (stereo unspecified), the inhibition is reported as inactive: -5.09%. In the case of Cc1ccc(NP(C)(=O)Oc2ccccc2)c(C)c1 (stereo unspecified), the inhibition is reported as inactive: -17.4%. With COc1ccccc1OP(C)(=O)Nc1ccc(C)cc1 (stereo unspecified) the inhibition was inactive: -2.16%. In the case of CCOC(=O)c1ccc(NP(C)(=O)Oc2ccccc2)cc1 (stereo unspecified), the inhibition is reported as inactive: -11%. In the case of CP(=O)(Nc1ccccc1Br)Oc1ccccc1 (stereo unspecified), the inhibition is reported as inactive: 2.8%. For COc1ccccc1OP(C)(=O)Nc1ccccc1 (stereo unspecified), the inhibition was inactive: 11.7%. For CP(=S)(Nn1cnnc1)Oc1ccccc1 (stereo unspecified), the inhibition was inactive: 0.603%. With Cc1cc(C)cc(OP(C)(=O)Nc2ccc(SC(F)(F)F)cc2)c1 (stereo unspecified) the inhibition was inactive: -4.71%. With CP(=O)(NC(=O)Nc1ccccc1)Oc1ccccc1 (stereo unspecified) the inhibition was inactive: 3.74%. With CCc1ccc(OP(C)(=O)N2CCN(c3ccc([N+](=O)[O-])cc3)CC2)cc1 (stereo unspecified) the inhibition was inactive: 34.8%. In the case of CP(=O)(Oc1ccccc1)OC(c1ccccc1)C(F)(F)F (stereo unspecified), the inhibition is reported as inactive: 17.1%. In the case of CP(=O)(Nc1ccc(SC(F)(F)F)cc1)Oc1ccc(Cl)cc1 (stereo unspecified), the inhibition is reported as inactive: -8.63%. For Cc1cccc(C)c1OP(C)(=O)Nc1ccc(SC(F)(F)F)cc1 (stereo unspecified), the inhibition was inactive: 6.41%. With Cc1ccc(Nc2c([N+](=O)[O-])cc([N+](=O)[O-])cc2[N+](=O)[O-])cc1 the inhibition was inactive: 12.9%. For CP(=O)(Nc1ccccn1)Oc1ccc(Cl)cc1 (stereo unspecified), the inhibition was inactive: 3.48%. For CCOC(=O)c1ccc(NP(C)(=O)Oc2ccc(OC)cc2)cc1 (stereo unspecified), the inhibition was inactive: 12.6%. For CCOP(C)(=S)SCC(=O)NC(C)C(=O)O (stereo unspecified), the inhibition was inactive: -11%.
